We go through 104 compounds from PubChem BioAssay AID602244 (Sanford-Burnham Center for Chemical Genomics, 2012).

Chains of the proteins cited; added tags and fusions are not shown. Lines headed by an entry give the natural chain unless they say otherwise; changes in a name come on top.
UniProt O00574: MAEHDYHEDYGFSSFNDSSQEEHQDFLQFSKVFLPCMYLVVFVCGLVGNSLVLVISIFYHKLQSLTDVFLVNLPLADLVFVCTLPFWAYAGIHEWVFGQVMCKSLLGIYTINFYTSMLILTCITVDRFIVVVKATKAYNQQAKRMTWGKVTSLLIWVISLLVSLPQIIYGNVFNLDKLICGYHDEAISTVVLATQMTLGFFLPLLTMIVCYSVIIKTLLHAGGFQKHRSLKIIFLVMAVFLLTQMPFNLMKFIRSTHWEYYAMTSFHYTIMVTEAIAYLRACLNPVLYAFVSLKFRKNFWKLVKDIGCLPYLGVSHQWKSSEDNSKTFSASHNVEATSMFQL

The entries are a selection whose mix differs from that of the whole data set. Calls of active or inactive are those of the source. Rule as the data show it: active = inhibition above about 34% (passing the limit was not always enough); inactive = the rest.

The target in the test is C-X-C chemokine receptor type 6 (Homo sapiens) (UniProt O00574). The experiment in a line: blockade of CXCL16-induced CXCR6 beta-arrestin recruitment – cell-based, luminescence, CHO-K1 PathHunter, 1536-well, primary screen (AID 602244).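 Also: antagonist mode with CXCL16 agonist at 10 nM final; 0% = 10 nM CXCL16 with DMSO and 100% = unstimulated wells without agonist.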 Conditions: at 20 µM, stronger effect = higher value. Background: Activated receptors often draw arrestin, which recruitment assays turn into a signal.
The term inhibition denotes the drop in the measured response relative to a control, in per cent. As for `O=[N+]([O-])c1ncn(CCn2ncnc2[N+](=O)[O-])n1`, the inhibition is inactive: -14.7%.

On to `CC(C)(C)C(=O)NC(Sc1ccncn1)C(Cl)(Cl)Cl` (centres undefined), for which the inhibition is inactive: -10.5%. Take `O=C(O)CNc1ccc([As](=O)(O)O)cc1`: the inhibition is inactive: -3.1%. For the compound `O=[N+]([O-])c1cccc(NC2=NCC(CBr)S2)c1` (centres undefined), the inhibition is inactive: 4.8%. Regarding `COC(=O)C1(C)COP(=O)(Nc2ccccc2)OC1` (centres undefined), the inhibition is inactive: 7.6%. Regarding `O=P1(N(CCCl)CCCl)OCCCS1` (centres undefined), the inhibition is inactive: 3.8%. As for `O=C(Nc1cc([As](=O)(O)O)ccc1O)c1ccccc1`, the inhibition was inactive: 12.9%.

With `CCN(/C(=N/P(=O)(N1CCOCC1)N1CCOCC1)N1CCOCC1)c1ccc(OC)cc1`, the inhibition is inactive: -0.7%. In the case of `C[N+]1=C2C=CC=CC=C2SC12C([N+](=O)[O-])=CC([N+](=O)[O-])=C[C-]2[N+](=O)[O-]` (centres undefined), the inhibition was active: 82.5%. To `Nc1ccc([As](=O)(O)c2ccc(N)cc2)cc1` belongs inactive: 7%; to `c1cc(-c2nn[nH]n2)ccc1-c1nn[nH]n1`, inactive: 4.7%.

For the compound `CC1CCN(C(=O)Oc2c(Cl)cc(Cl)c3cccnc23)CC1`, the inhibition was inactive: -15%.

For `CN(C)C(=O)OCCc1n(C)cc[n+]1C`, the inhibition is inactive: 1.8%. To `CC(C)=N/N=C(\N)N[N+](=O)[O-]` belongs inactive: 6.2%; to `CC(C)c1nc(Nc2ccccc2)n(P(=O)(N(C)C)N(C)C)n1`, inactive: 5.8%; to `COc1ccc(C2=NCC(CBr)S2)cc1` (centres undefined), inactive: 1.8%. With `O=[N+]([O-])c1cc([N+](=O)[O-])c(CCNc2ccccc2)c([N+](=O)[O-])c1`, the inhibition is inactive: 3.7%.

As for `CCc1nc2c(n1)c1c(non1O)c1c2no[n+]1[O-]`, the inhibition is inactive: 5.6%.

In the case of `Cc1ccc(NP(=O)(Oc2ccccc2)Oc2ccccc2)nc1`, the inhibition was inactive: 6.9%. For `CC(=O)N1C2C3N(C(C)=O)C1C1N(C(C)=O)C(C(N1C(C)=O)N3C(C)=O)N2C(C)=O`, the inhibition was inactive: -12.9%. Turning to `O=[N+]([O-])c1cccc2n[nH]nc12`, the inhibition was inactive: 1%. `O=C(NC(Sc1ccncn1)C(Cl)(Cl)Cl)c1ccccc1` (centres undefined): the inhibition was inactive: -13.6%. As to `Oc1ccccc1CNc1ccccn1`, the inhibition was inactive: -1.1%. Take `CC(C)CC(=O)NC(Sc1ccc(Cl)cc1)C(Cl)(Cl)Cl` (centres undefined): the inhibition is inactive: -2.3%.

On to `Nc1cc(N)c2nonc2c1[N+](=O)[O-]`, for which the inhibition is inactive: -7.2%. The figure for `O=[N+]([O-])C1C(O)C(O)C([N+](=O)[O-])C(O)C1O` (centres undefined) is inactive: 4%.

Turning to `Cc1ccc(N/C(=N/P(=O)(N2CCOCC2)N2CCOCC2)N2CCOCC2)cc1`, the inhibition was inactive: 10.7%.

For the compound `CN(C(=O)Cc1ccc(Cl)c(Cl)c1)[C@H]1CCCC[C@H]1N1CCCC1`, the inhibition was inactive: 10.2%.

As for `NC(=O)c1cc([N+](=O)[O-])cc([N+](=O)[O-])c1N`, the inhibition was inactive: -7.2%. As for `Clc1ccc(Cl)c(NC2=NCC(CBr)S2)c1` (centres undefined), the inhibition was inactive: -5.8%. The figure for `CN1CCCC(OC(=O)C(c2ccccc2)c2ccccc2)C1` (centres undefined) is inactive: 11%; for `Cc1ccc(OP(=O)(Nc2nccs2)Oc2ccc(C)cc2)cc1` it is inactive: -3.4%. As for `COc1ccccc1OP(=O)(Nc1ccc(C)cn1)Oc1ccccc1OC`, the inhibition was inactive: 4.6%.

As to `Nc1cccc2ccc([As](=O)(O)O)cc12`, the inhibition is inactive: -6.6%. The figure for `CCN(N=Nc1nonc1N)c1nonc1N` is inactive: 5.2%; for `CN(C)P(=O)(N(C)C)n1c(Nc2ccccc2)nnc1-c1ccccc1` it is inactive: -4%. The figure for `O=P(Nc1nc2ccc(Cl)cc2s1)(c1ccccc1)c1ccccc1` is inactive: 8.6%; for `CCCC1OP(N)(=O)OCC1CC` (centres undefined) it is inactive: -1.4%; for `O=C(O)c1ccccc1[As](=O)(O)O` it is inactive: -5.3%. `CC(=O)Nc1ccc([As](=O)(O)O)cc1`: the inhibition was inactive: -10.5%.

`CN(C(=O)Cc1ccc(Cl)c(Cl)c1)[C@H]1CCCC[C@@H]1N1CCCC1`: the inhibition was inactive: 6.3%. Turning to `Cc1ccc(NP(=O)(Oc2ccccc2F)Oc2ccccc2F)nc1`, the inhibition was inactive: -1.6%. As for `CCOP(=O)(Nc1ccccc1)OCC`, the inhibition was inactive: -2.6%. The figure for `Cc1cc(SC(NC(=O)c2ccc(F)cc2)C(Cl)(Cl)Cl)ncn1` (centres undefined) is inactive: -6.4%. `CCC(=O)N1C2C3N(C(=O)CC)C1C1N(C(=O)CC)C(C(N1C(=O)CC)N3C(=O)CC)N2C(=O)CC`: the inhibition was inactive: -8.7%. Turning to `O=C(OC1CN2CCC1CC2)c1ccccc1` (centres undefined), the inhibition was inactive: 2.2%.

Turning to `Cc1ccc(OP(=O)(Nc2ccccn2)Oc2ccc(C)cc2)cc1`, the inhibition was inactive: -6.5%. Take `CC(=O)NC(SC(=S)N(CC(C)C)CC(C)C)C(Cl)(Cl)Cl` (centres undefined): the inhibition is inactive: 23.8%.

On to `COC(=O)c1cc2c(s1)N=C(c1ccccc1)N(C)P2(=O)N1CCOCC1` (centres undefined), for which the inhibition was inactive: -13.6%. As to `CN(C)C(=O)Oc1noc2ccccc12`, the inhibition is inactive: -1.9%.

For the compound `O=c1c2cc([N+](=O)[O-])ccc2[nH]c2c([N+](=O)[O-])cc([N+](=O)[O-])cc12`, the inhibition is active: 45.2%. Turning to `Cc1ccccc1OP(=O)(Nc1ccccn1)Oc1ccccc1C`, the inhibition was inactive: 5.3%.

Consider `CC(NC(=O)COC(=O)C(O)(c1ccccc1)c1ccccc1)c1ccccc1` (centres undefined), for which the inhibition was inactive: -2.7%. With `Cc1ccc(NP(=O)(Oc2cccc(C)c2)Oc2cccc(C)c2)nc1`, the inhibition was inactive: 1.7%.

In the case of `c1ccc(-c2nn[nH]n2)c(-c2nn[nH]n2)c1`, the inhibition is inactive: 7.4%. As for `O=C(NC1CCS(=O)(=O)C1)NP(=S)(Oc1ccccc1)Oc1ccccc1` (centres undefined), the inhibition was inactive: 4%. As for `CCNC(=S)/N=C(\N)N[N+](=O)[O-]`, the inhibition was inactive: 8.3%. With `O=P1(N(CCCl)CCCl)OCCC2CCCCN21` (centres undefined), the inhibition was inactive: -4.3%.

As for `C[C@@H]1C=CCP(=O)(Oc2ccccc2)O1` (some centres undefined), the inhibition is inactive: 1.9%.

`C[C@H]1OP(=O)(Oc2ccccc2)C[C@@H]2O[C@@H]21` (some centres undefined): the inhibition was inactive: -4.8%.

As for `Cc1ccccc1CN(C)C(=O)COC(=O)C(O)(c1ccccc1)c1ccccc1`, the inhibition is inactive: 2.8%. Regarding `COC(=O)C1(C)COP(=O)(NCc2ccccc2)OC1` (centres undefined), the inhibition was inactive: 4.7%. To `N#C/C(=C\c1ccc(N(CCBr)CCBr)cc1)C(N)=O` belongs inactive: -2.2%; to `CC(=O)c1ccc(N2CC2c2ccncc2)cc1` (centres undefined), inactive: -4.6%; to `CC(=O)Nc1ccc(Oc2c([N+](=O)[O-])cc([N+](=O)[O-])cc2[N+](=O)[O-])cc1`, inactive: 9.7%.

Turning to `CC(=O)Nc1ccc([As](=O)(O)O)c(O)c1`, the inhibition is inactive: -1.2%. On to `CCOc1ccc(C2=NCC(CBr)S2)cc1` (centres undefined), for which the inhibition is inactive: 2.2%. As to `O=P1(Nc2nc3ccc(Cl)cc3s2)COc2ccccc2O1` (centres undefined), the inhibition was inactive: 0.4%. In the case of `CC(C)(C)C(=O)NC(Sc1ccccc1)C(Cl)(Cl)Cl` (centres undefined), the inhibition was inactive: 10.4%. On to `CCc1cc(O)c([N+](=O)[O-])c(C)c1[N+](=O)[O-]`, for which the inhibition was inactive: 7.9%. As to `O=P(Nc1nccs1)(c1ccccc1)c1ccccc1`, the inhibition was inactive: -2.8%.

`CC(C)C(=O)NC(Sc1ccccc1)C(Cl)(Cl)Cl` (centres undefined): the inhibition was inactive: 2.5%.

With `c1nnnn1CCn1cnnn1`, the inhibition is inactive: -11.9%. For the compound `O=[As](O)(c1ccccc1)c1ccc(O)cc1`, the inhibition is inactive: 2.5%. Take `O=[N+]([O-])c1ncn(CCn2cnc([N+](=O)[O-])n2)n1`: the inhibition is inactive: -11.2%. Take `CC(=O)NC(SC(=S)N(C)C)C(Cl)(Cl)Cl` (centres undefined): the inhibition was inactive: 17%. On to `O=[N+]([O-])c1ccc(O)c(/C=N/Nc2ccc([N+](=O)[O-])cc2[N+](=O)[O-])c1`, for which the inhibition was inactive: 31.5%. On to `O=C(OC1CN2CCC1CC2)c1cccc(Cl)c1` (centres undefined), for which the inhibition was inactive: 0.5%. To `Nc1ccc([As](=O)(O)c2ccc([N+](=O)[O-])cc2)cc1` belongs inactive: 6.7%; to `C(Cc1nn[nH]n1)Cc1nn[nH]n1`, inactive: -4.2%; to `CN(C)C1(CNC(=O)c2ccc(Cl)c(S(N)(=O)=O)c2)CCCCC1`, inactive: -6%. To `O=P(Nc1ccccn1)(c1ccc(Br)cc1)c1ccc(Br)cc1` belongs inactive: 1.1%; to `Nc1ccc(CCCCOc2ccccc2)cc1`, inactive: 15.6%; to `COc1ccc(N)c([N+](=O)[O-])c1[N+](=O)[O-]`, inactive: 14.2%. `C[C@H]1OP(=O)(Oc2ccccc2)[C@H](O)[C@H](O)[C@H]1N=[N+]=[N-]` (some centres undefined): the inhibition was inactive: -1.6%. To `O=P(Nc1nc2ccccc2s1)(c1ccccc1)c1ccccc1` belongs inactive: -1.3%; to `Cc1ccc(S(=O)(=O)N(CCCN)CCCc2c(C)nc(N)[nH]c2=O)cc1`, inactive: 22.1%. `O=P1(Nc2ncccn2)COc2ccccc2OC1`: the inhibition is inactive: -2.5%. The figure for `Nc1cccc([As](=O)(O)c2ccccc2)c1` is inactive: -2%.

For `NS(=O)(=O)c1cccc(NC(=O)COC(=O)C(O)(c2ccccc2)c2ccccc2)c1`, the inhibition is inactive: -4.6%. As to `O=P1(Nc2ccc(Br)cn2)COc2ccccc2OC1`, the inhibition is inactive: -12%. To `O=[As](O)(c1cccs1)c1cccs1` belongs inactive: 4.7%; to `Cc1ccc(OCC(=O)OC2CN3CCC2CC3)cc1` (centres undefined), inactive: -8.5%. In the case of `Cc1ccc(C(=O)OC2CN3CCC2CC3)cc1` (centres undefined), the inhibition was inactive: 4%.

As to `CC1CCC(C(C)C)C(OP(=O)(Nc2ccccn2)c2ccccc2)C1` (centres undefined), the inhibition is inactive: 9.3%. To `Cc1nn(-c2ccccc2)c2c1P(=O)(N1CCOCC1)N(C)C(c1ccccc1)=N2` (centres undefined) belongs inactive: -6.8%; to `CN(C)C1(CNC(=O)c2ccc(S(C)(=O)=O)cc2)CCCCC1`, inactive: -0.4%. The figure for `CCCC1OP(=O)(Nc2ccccc2)OCC1CC` (centres undefined) is inactive: -1.2%; for `O=C(/C=C/c1ccccc1)OC1CN2CCC1CC2` (centres undefined) it is inactive: -19.1%; for `COc1ccccc1CNC(=O)COC(=O)C(O)(c1ccccc1)c1ccccc1` it is inactive: 8.6%. On to `CN(C(=O)Cc1ccc(Cl)c(Cl)c1)[C@@H]1CCCC[C@H]1N1CCCC1`, for which the inhibition was inactive: 0.6%. Consider `CC(C)/C=N\N=C(\N)N[N+](=O)[O-]`, for which the inhibition was inactive: 4.7%. Consider `CC1(CBr)Cn2c(nc3ccccc3c2=O)S1` (centres undefined), for which the inhibition was inactive: 5.5%. With `CCOP(=O)(NC(=NC(C)c1ccccc1)NC(C)c1ccccc1)OCC` (centres undefined), the inhibition was inactive: 1.2%.
